Data on four compounds can be found in patent publication US11535630B2, “Apelin receptor (APJ) agonists and uses thereof” (Research Triangle Institute, priority 2015, dated 2022).

Chains of the proteins cited; added tags and fusions are not shown.
UniProt P35414, whole entry: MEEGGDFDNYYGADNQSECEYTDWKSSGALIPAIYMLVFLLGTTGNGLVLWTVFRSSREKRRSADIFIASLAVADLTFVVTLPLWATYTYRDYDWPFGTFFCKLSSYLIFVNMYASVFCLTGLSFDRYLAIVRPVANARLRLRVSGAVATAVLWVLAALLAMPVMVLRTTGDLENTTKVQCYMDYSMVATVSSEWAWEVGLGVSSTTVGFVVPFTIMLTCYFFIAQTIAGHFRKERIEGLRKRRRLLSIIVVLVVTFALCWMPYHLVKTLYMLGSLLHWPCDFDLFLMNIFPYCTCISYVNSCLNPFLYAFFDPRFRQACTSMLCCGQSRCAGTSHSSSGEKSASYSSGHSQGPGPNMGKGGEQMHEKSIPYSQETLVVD

The assay deals with apelin receptor (APJ) (Homo sapiens, UniProt P35414). In words: In vitro apelin agonist activity (methods of Giddings et al., Apelin-13 as positive control). It counts as cell-based.

Like-named read-outs stand apart in the source and are kept apart here.

In the case of `COCCN(C)C(=O)[C@H](COC(C)(C)C)NC(=O)c1cc(-c2ccccc2C(F)(F)F)n(C2CCCC2)n1`, the 50% effective concentration (EC50) (read-out: EC50 (nM) Ave) turned out to be 5550 nM.
Turning to `C[C@H](C(=O)O)[C@H](CCN1CC2C(C1)C2(F)F)NC(=O)c1cc(-c2ccccc2C(F)(F)F)n(C2CCCC2)n1` (stereo partly shown), the 50% effective concentration (EC50) (read-out: EC50 (nM) Ave, tested form: HCl) is 87 nM.
On to `O=C(N[C@@H](CCN1CCCC(F)(F)C1)Cc1nnc[nH]1)c1cc(-c2ccccc2C(F)(F)F)n(C2CCCC2)n1`, for which the EC50 (read-out: EC50 (nM) Ave) was 21 nM.
As for `O=C(N[C@@H](CCN1CC2C(C1)C2(F)F)Cc1nnn[nH]1)c1cc(-c2ccccc2C(F)(F)F)n(C2CCCC2)n1` (stereo partly shown), the concentration giving a half-maximal response (EC50) (read-out: EC50 (nM) Ave) is 61 nM.

Broadly, the EC50 is the midpoint of the concentration-response curve.
